Literature values, collected in US11248025B2, “IL-2alpha receptor subunit binding compounds” (MEDIKINE, INC., priority 2019, dated 2022).

Target: IL-2 receptor subunits
Settings: cells expressing IL-2R subunit/β-Gal fragment constructs treated with IL-2; DiscoverX product specifications

- EC50: ~26 nM
Substance: IL-2: four α-helical bundle cytokine, T cell growth factor; natural IL-2R agonist used as comparator
